Source: ChEMBL document CHEMBL5096194, “Development of Alectinib-Based PROTACs as Novel Potent Degraders of Anaplastic Lymphoma Kinase (ALK)” (J Med Chem, 2021)

The chains behind the UniProt entries cited, without tags or fusion partners. Where a name states a change or a piece, a line headed by the entry shows the natural chain unless it says otherwise.
UniProt Q9UM73: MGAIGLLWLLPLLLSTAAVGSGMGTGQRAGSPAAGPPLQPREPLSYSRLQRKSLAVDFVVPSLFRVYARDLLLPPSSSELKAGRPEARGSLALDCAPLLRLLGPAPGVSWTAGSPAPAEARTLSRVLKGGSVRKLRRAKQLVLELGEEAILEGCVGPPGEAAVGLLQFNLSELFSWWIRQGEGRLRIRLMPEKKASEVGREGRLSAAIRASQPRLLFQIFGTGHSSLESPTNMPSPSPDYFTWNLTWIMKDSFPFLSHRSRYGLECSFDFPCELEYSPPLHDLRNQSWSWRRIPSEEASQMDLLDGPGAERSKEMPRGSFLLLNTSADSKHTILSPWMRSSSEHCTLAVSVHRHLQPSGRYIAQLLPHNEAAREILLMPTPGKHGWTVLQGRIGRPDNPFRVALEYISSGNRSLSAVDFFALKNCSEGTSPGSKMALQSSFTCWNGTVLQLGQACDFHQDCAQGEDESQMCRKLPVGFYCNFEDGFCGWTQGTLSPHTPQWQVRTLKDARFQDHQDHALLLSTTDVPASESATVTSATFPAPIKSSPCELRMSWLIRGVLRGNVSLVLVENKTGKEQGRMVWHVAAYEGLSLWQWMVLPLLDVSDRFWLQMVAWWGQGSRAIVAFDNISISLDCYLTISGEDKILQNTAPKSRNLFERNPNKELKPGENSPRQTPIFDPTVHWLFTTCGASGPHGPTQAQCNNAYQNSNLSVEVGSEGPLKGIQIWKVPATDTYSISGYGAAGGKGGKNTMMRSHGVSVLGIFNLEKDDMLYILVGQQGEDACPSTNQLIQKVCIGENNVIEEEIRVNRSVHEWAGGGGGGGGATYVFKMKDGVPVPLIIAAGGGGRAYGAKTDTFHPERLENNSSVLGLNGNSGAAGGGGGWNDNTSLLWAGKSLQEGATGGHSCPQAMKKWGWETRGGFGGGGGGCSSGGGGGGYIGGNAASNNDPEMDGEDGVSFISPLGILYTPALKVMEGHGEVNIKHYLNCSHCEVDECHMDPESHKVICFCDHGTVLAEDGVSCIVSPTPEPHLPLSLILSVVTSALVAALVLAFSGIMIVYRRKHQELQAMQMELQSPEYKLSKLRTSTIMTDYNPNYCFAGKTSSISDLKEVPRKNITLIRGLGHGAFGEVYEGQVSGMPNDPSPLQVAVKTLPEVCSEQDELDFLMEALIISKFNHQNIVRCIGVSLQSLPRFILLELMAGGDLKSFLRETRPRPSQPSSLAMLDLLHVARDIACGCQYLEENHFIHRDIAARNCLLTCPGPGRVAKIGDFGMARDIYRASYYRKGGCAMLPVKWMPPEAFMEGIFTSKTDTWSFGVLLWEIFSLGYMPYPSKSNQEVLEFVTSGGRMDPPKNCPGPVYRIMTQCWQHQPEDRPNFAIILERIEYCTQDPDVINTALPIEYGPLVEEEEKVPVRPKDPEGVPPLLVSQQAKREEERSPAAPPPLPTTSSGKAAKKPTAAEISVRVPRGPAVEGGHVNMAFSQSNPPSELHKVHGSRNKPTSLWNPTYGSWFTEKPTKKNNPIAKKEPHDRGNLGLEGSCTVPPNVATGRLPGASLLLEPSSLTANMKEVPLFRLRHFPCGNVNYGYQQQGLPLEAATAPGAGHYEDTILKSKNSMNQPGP

Target: ALK tyrosine kinase receptor (Homo sapiens, UniProt Q9UM73)
Experiment: Potency index, ratio of Alectinib IC50 to test compound IC50 for binding affinity to ALK (unknown origin) using TK as substrate incubated for 1 hr in presence of ATP by HTRF analysis

SMILES | Ratio IC50
CCc1cc2c(cc1N1CCC(N3CCNCC3)CC1)C(C)(C)c1[nH]c3cc(C#N)ccc3c1C2=O | > 3
CCc1cc2c(cc1N1CCNCC1)C(C)(C)c1[nH]c3cc(C#N)ccc3c1C2=O | > 3
